# scFv variants of Ab-14 (heavy chain) against a SARS-CoV-2 spike peptide

Reference: Li et al. 2023, doi:10.1038/s41467-023-39022-2. File: FLAb, binding data.

Target: peptide PDVDLGDISGINAS, taken from heptad repeat 2 (HR2) of SARS-CoV-2 spike.

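Designed CDR sequences, proposed from the first random library and measured here. Several design methods are mixed in this list. Affinity was read by AlphaSeq, a pooled yeast mating assay with surface-displayed partners. The frequency of each diploid, read from paired DNA barcodes, reflects how well the two displayed proteins bind. A regression on co-assayed BCL2-family reference pairs converts the normalised counts of each replicate to an apparent Kd. Mating was done six times.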

Parent: Ab-14, a human scFv built as VH, a 15-residue (Gly4Ser)3 linker, VL. Only the CDRs of the heavy chain vary.
VH: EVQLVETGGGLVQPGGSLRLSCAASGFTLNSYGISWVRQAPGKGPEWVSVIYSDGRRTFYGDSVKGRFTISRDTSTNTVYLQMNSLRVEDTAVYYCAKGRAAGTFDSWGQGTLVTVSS
VL: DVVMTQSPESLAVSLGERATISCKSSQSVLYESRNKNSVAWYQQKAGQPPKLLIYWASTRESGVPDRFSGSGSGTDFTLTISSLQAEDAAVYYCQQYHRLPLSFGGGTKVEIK

The parent's heavy chain CDRs are GFTLNSYGIS, VIYSDGRRTFYGDSVK, GRAAGTFDS; each variant's own CDRs replace them letter for letter.
Each Kd is an estimate from the mating assay, the geometric mean of the replicates in which the pair was seen; lower is stronger.
An entry "no signal" has no value in the source: the pair was not observed among the diploids in any replicate. This suggests poor binding but is not conclusive.
The authors averaged sequences with at least three values out of six and counted those with two or fewer as poor binders.
As a blank, each scFv also met three strains without target: over all heavy chain designs, 1% of these pairings were detected, typically at 120 nM and seldom below 7.0 nM.
The parent sequence was in this pool as ten entries: three were never detected, three once, and four in most replicates, with averages from 2.2 nM to 240 nM.
A sequence measured in both rounds can read differently, since the two assays cover different ranges.

CDR-H1 | CDR-H2 | CDR-H3 | Kd (apparent) | seen in
GFDLNEYGIS | VIYADGKRTFYADSVK | GEAAGTFDS | 590 pM | 6/6
GFDLNEYGIS | VIYADGVRTAYSDSVK | GNTAGTFDQ | 540 pM | 6/6
GFDLNEYGIS | VIYADGMRTAYADSVK | GGNAGTFDI | 610 pM | 6/6
GFDLNEYGIS | VIYADGRRTSYLDSVK | GEAAGTFDV | 860 pM | 6/6
GFTLNSYGIS | VIYSDGRRTFYGDSVK | GQAAGIFDS | 110 nM | 3/6
GFDLDEYGIS | VIYADGVRTAYADSVK | GEVAGTFDL | 450 pM | 6/6
GFSLNEYGIS | VIYSDGRRTFYGDAVK | GQAAGTFDS | 1.5 nM | 6/6
GFTLNSYGIS | VIYSDGRRTFYSDSVK | GLAGGTFDT | 5.1 nM | 5/6
GFELNSYGIS | VIYSDGRRTFYGDSVK | GQAAGTFDS | 3.9 nM | 6/6
GFSLDEYGIS | VIYADGLRSKYADKVK | GQLQQYGDT | 120 nM | 1/6
GFDLDEYGIS | VIYADGMRTAYADSVK | GEVAGTFDA | 450 pM | 6/6
GFDLNEYGIS | VIYADGMRTAYSDNVK | GQVAGTFDV | 240 pM | 6/6
GFDLNSYGIS | VIYSDGRRTFYSDSVK | GHAAGTFDS | 1.5 nM | 6/6
GFTLNSYGIS | VIYSDGLRTFYTDSVK | GRAAGAFDS | 100 nM | 4/6
GFNLDEYGIS | VIYADGMRTAYSDSVK | GEVAGTFDL | 130 pM | 6/6
GFDLNEYGIS | VIYADGRRTFYKDSVK | GNAAGTFDQ | 280 pM | 6/6
GFDLNEYGIS | VIYADGRRTAYADSVK | GEVAGTFDT | 1.5 nM | 6/6
GFSLNSYGIS | VIYSDGRRTFYADSVK | GHAAGTFDN | 19 nM | 4/6
GFWLDEYGIS | VIYADGMRTAYKNSVK | GSFTYVFDV | no signal | 0/6
GFELNSYGIS | VIYADGRRTFYGDSVK | GQAAGTFDV | 740 pM | 6/6
GFSLNWYGIS | VIYSDGRRTSYIDSVK | GRAAGTFDS | 20 nM | 6/6
SFDLNSYGIS | VIYSDGRRTFYGDSVK | GRNAGTFDS | 8.8 nM | 5/6
GFTLNSYGIS | VIYSDGRRTFYGDSVK | GRAAGLFDS | no signal | 0/6
GFDLNSYGIS | VIYSDGRRTYYGDSVK | GQAAGTFDS | 1.3 nM | 6/6
GESLDEYGIS | VIYADGQRNAFTSKVK | GHVAGVFNL | no signal | 0/6
GFTLNEYGIS | VIYSDGRRTFYTDSVK | GREAGTFDE | 7.6 nM | 6/6
NFTLNHYGIS | VIYSRGRRTQYIDSVK | TRAAGTFDS | no signal | 0/6
KFNLNSYGIS | VIYSDGRRTFYVDSVK | GNQAGTFDS | no signal | 0/6
GFDLNEYGIS | VIYADGVRTAYTDSVK | GNVAGTFDQ | 410 pM | 6/6
GFDLNEYGIS | VIYADGVRTAYSDSVK | GQNAGTFDM | 370 pM | 6/6
GFDLQEYGIS | VIYADGHRTAYIQKVK | GQIVGGQFD | no signal | 0/6
GFTLNSYGIS | VIYSDGRRTFYGDSVS | VRNAGTFDS | no signal | 0/6
GFSINSYGIS | VIYSDGRRTFYGDSVK | GEAAKTFDS | no signal | 0/6
GFSLNEYGIS | VIYSDGRRTFYGDSVK | GQTAGTFDL | 1.2 nM | 6/6
GFTLEDYGIS | VIYSDGRRTFYGDKVK | GRAAGTFDS | 46 nM | 6/6
GRTLNLYGIS | VIYSDGRRTFYGDSVK | GRAAGTFDS | 64 nM | 1/6
GFDINEYGVS | VIYADGMRTAYRDSVK | GEGKWIVLI | no signal | 0/6
GFDLNSYGIS | VIYSDGQRTFYVDSVK | GRQAGTFDS | 2.2 nM | 6/6
GFTLNEYGIS | VIYSDGRRTFYTDSVK | GHTAGTFDS | 1.4 nM | 6/6
GFDLNEYGIS | VIYADGRRTFYSDSVK | GEAGGTFDM | 940 pM | 6/6
GFELNSYGIS | VIYSDGRRTFYGDSVR | GDAAGTWDS | 38 nM | 4/6
GFDLNEYGIS | VIYADGMRTYYADSVK | GNNAGTFDQ | 500 pM | 6/6
GFDLNEYGIS | VIYADGMRTAYADSVK | GNVAGTFDM | 1.1 nM | 6/6
GFDLNEYGIS | VIYADGMRKAYADSVK | GANAGTFDV | 220 pM | 6/6
GFALNQYGIS | VIYSDGRRTFYADSVK | GRAAGTFDS | no signal | 0/6
GFHLNDYGIS | VIYSDKRATQYIDSVK | GRLAGTFDS | no signal | 0/6
GFTLNSYGIS | VIYSDGRRTFYSDSVK | GSEAGTFDS | 730 pM | 6/6
GFTLESYGIS | VIYSDGRRVFYDDSVK | GENAGTFDS | 4.0 nM | 6/6
GFDLNEYGIS | VIYADGVRTAYADSVK | GGNAGTFDM | 700 pM | 6/6
GFDLNEYGIS | VIYADGMRTAYADSVK | GNSAGTFDV | 600 pM | 6/6
GFTLNSYGIA | VIYSDGRRTFYSDSVK | GRAGGTFDS | 3.0 nM | 1/6
GFTLNSYGIS | VIYSDGRRTFYQDDVK | GEAAGTFKS | 120 nM | 5/6
GFDLNEYGIS | VIYADGVQRFYTDNVK | GGNQGTAVL | 2.1 µM | 1/6
GFDLDEYGIS | VIYADGVRTFYADSVK | GEVAGTFDV | 440 pM | 6/6
GFNLDEYGIS | VIYADGQRTAYAQHVK | GGGTTDRGI | no signal | 0/6
GFTLNDYGIS | VIYSDGKRTFYIDSVK | GKAAGTFWS | 21 nM | 1/6
GFTLNSYGIS | VIYSDGRRTFYGDSVK | GRFAGTFDS | 9.3 nM | 2/6
GFDLDEYGIS | VIYADGMRTAYIDSVK | GNVAGTFDV | 390 pM | 6/6

The first 5 entries again:

| CDR-H1 | CDR-H2 | CDR-H3 | Kd (apparent) | seen in |
|---|---|---|---|---|
| GFDLNEYGIS | VIYADGKRTFYADSVK | GEAAGTFDS | 590 pM | 6/6 |
| GFDLNEYGIS | VIYADGVRTAYSDSVK | GNTAGTFDQ | 540 pM | 6/6 |
| GFDLNEYGIS | VIYADGMRTAYADSVK | GGNAGTFDI | 610 pM | 6/6 |
| GFDLNEYGIS | VIYADGRRTSYLDSVK | GEAAGTFDV | 860 pM | 6/6 |
| GFTLNSYGIS | VIYSDGRRTFYGDSVK | GQAAGIFDS | 110 nM | 3/6 |